This test deals with D(2) dopamine receptor (Rattus norvegicus, UniProt P61169).

The chains behind the UniProt entries cited, without tags or fusion partners.
UniProt P61169, whole entry: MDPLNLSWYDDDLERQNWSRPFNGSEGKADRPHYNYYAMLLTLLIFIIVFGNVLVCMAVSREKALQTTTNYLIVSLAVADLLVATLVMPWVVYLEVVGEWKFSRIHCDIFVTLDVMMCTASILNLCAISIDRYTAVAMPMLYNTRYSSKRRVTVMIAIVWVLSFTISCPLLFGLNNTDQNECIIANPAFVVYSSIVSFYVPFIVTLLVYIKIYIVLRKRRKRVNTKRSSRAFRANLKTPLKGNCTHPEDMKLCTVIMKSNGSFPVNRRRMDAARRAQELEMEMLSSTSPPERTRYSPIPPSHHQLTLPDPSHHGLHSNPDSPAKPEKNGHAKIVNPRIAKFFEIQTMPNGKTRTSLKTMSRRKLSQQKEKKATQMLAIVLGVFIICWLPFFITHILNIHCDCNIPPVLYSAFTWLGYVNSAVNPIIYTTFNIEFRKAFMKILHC

As to `CCN1CCC[C@H]1CN1Cc2ccc(Cl)cc2C1=O`, the IC50 came out at 1300 nM. In other words, the single-digit micromolar range.

A word on the IC50: it is the midpoint of a concentration-inhibition curve. Low values mean higher potency, high ones lower potency.

The record behind these values is ChEMBL document CHEMBL1126883 (1993).
